Laboratory results published in ChEMBL document CHEMBL5512644 (Eur J Med Chem, 2024).

Sequences of proteins named here, by UniProt entry; tags and fusion partners are left off. A change or cut given only in a name is not applied to a line headed by its entry.
UniProt Q9Y5X5: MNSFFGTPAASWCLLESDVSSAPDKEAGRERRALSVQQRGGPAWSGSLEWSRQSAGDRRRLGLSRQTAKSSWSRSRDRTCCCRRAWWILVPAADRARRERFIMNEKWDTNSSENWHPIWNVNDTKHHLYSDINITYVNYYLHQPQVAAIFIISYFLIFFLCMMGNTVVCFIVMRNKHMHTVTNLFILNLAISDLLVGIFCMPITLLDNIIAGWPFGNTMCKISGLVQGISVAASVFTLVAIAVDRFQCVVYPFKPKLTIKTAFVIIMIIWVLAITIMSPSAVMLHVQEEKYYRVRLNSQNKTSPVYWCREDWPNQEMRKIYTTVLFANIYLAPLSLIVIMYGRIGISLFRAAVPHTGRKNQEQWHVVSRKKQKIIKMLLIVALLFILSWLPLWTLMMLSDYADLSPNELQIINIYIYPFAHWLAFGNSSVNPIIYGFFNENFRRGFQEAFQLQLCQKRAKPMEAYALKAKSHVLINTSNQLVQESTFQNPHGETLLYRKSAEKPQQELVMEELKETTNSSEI
UniProt Q9GZQ6: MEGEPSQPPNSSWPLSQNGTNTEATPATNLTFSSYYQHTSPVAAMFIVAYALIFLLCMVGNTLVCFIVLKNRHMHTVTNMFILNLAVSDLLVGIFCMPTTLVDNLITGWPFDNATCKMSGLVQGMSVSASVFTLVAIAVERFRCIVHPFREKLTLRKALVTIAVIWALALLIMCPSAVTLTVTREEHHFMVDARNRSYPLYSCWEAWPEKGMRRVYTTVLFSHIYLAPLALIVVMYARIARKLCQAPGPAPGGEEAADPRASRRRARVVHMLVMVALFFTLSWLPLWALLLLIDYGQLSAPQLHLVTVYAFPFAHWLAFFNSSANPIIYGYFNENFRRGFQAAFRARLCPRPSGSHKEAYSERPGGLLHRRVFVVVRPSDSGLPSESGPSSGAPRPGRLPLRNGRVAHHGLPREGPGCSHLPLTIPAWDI

Assays:
[1] = target: T1, Neuropeptide FF receptor 2 (Homo sapiens, UniProt Q9Y5X5); assay: Antagonist activity at human NPFF2 receptor expressed in CHO cells assessed as reversal of NPFF inhibition of forskolin-induced cAMP production incubated for 30 mins by TR-FRET assay; format: functional, cell-based
[2] = target: T2, Neuropeptide FF receptor 1 (Homo sapiens, UniProt Q9GZQ6); assay: Antagonist activity at human NPFF1 receptor expressed in CHO cells assessed as reversal of NPFF inhibition of forskolin-induced cAMP production incubated for 30 mins by TR-FRET assay; format: functional, cell-based
[3] = target: T2, Neuropeptide FF receptor 1; assay: Agonist activity at human NPFF1 receptor expressed in CHO cells assessed as inhibition of forskolin induced cAMP production upto 10 uM incubated for 30 mins by TR-FRET assay; format: functional, cell-based
Homo sapiens = organism: Homo sapiens; assay: Selectivity ratio of Ki for displacement of [3H]NPVF from monoclonal human NPFF1 receptor expressed in CHO cells to Ki for displacement of [3H]-EYF from monoclonal human NPFF2 receptor expressed in CHO cells; format: cell-based
[4] = target: T1, Neuropeptide FF receptor 2; assay: Agonist activity at human NPFF2 receptor expressed in CHO cells assessed as inhibition of forskolin induced cAMP production upto 10 uM incubated for 30 mins by TR-FRET assay; format: functional, cell-based

Row | Activity [1] | Activity [2] | Activity [3] | Activity [4] | Activity ([2]; filed as antagonist) | SMILES | Ratio Ki (Homo sapiens)
1 | inactive | inactive | inactive | inactive |  | O=C(CCN1CCCCC1)NCC1(Cc2cccc3ccccc23)CCN(Cc2ccccc2)CC1 | 8
2 | inactive |  | inactive | inactive | Dose-Dependent Effect | O=C(CN1CCC(Cc2ccccc2)CC1)NCC1(Nc2cccc3ccccc23)CCN(Cc2ccccc2)CC1 | 

The source made the active and inactive calls. The rule behind the calls is not given here.
